Data taken from PubChem BioAssay AID488961 (Johns Hopkins Ion Channel Center, 2010).
The list shows a part of the results, in another mix than the full data. The source made the active and inactive calls.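 Rule for the calls: active = ratio signal rise beyond 5 SD above unstimulated control wells' mean, seen in both duplicate runs; inactive = the rest.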

Chains of the proteins cited; added tags and fusions are not shown.
UniProt Q61143, whole entry: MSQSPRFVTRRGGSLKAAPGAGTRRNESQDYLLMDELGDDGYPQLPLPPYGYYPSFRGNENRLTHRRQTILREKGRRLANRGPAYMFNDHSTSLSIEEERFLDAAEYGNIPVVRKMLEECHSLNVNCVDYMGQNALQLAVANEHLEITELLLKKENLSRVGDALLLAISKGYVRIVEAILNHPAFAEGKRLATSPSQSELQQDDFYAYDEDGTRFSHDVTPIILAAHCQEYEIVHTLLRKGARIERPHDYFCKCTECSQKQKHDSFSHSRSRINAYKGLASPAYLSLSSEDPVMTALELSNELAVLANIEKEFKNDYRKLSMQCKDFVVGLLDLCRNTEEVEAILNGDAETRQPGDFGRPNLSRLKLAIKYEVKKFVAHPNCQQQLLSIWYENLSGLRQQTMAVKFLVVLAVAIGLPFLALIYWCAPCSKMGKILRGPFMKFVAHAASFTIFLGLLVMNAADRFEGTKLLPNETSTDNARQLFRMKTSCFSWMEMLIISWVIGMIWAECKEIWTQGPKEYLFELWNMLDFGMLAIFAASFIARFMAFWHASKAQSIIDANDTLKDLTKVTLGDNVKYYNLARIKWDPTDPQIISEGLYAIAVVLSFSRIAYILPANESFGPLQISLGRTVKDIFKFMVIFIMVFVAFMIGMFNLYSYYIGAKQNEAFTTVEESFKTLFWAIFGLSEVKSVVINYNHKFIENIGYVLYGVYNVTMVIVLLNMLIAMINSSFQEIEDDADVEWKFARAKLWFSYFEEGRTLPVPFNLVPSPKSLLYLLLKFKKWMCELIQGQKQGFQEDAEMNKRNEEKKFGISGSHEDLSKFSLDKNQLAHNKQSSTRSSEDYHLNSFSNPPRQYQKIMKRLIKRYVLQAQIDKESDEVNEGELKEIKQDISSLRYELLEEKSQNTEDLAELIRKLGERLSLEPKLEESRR

target: Short transient receptor potential channel 6 (Mus musculus) (UniProt Q61143); experiment: mouse TRPC6 channel activators, confirmation, HEK293 cells, membrane potential dye, duplicate (AID 488961); settings: HEK293-TRPC6 membrane potential dye fluorescence, FDSS; at 10 µM

Structure (SMILES)	outcome
O=C(OC1CN2CCC1CC2)C1c2ccccc2Oc2ccccc21 (stereo not drawn)	inactive
CN1CCN(CCOC(=O)C(O)(c2ccccc2)c2ccccc2)CC1	inactive
CCC(CO)(C(=O)OC1CN2CCC1CC2)c1ccccc1 (stereo not drawn)	inactive
